Source: PubChem BioAssay (EPA / NIEHS)
Listed are the inconclusive results; actives and inactives stand elsewhere. How the source made its calls: active means hit-call score of the fitted dose curve at least 0.9, where 1 is the maximum; inconclusive means response in the unintended direction; inactive means score below 0.9.

Amino acid sequences for entries named in this document (tags omitted). A change or cut given only in a name is not applied to a line headed by its entry.
UniProt P62508: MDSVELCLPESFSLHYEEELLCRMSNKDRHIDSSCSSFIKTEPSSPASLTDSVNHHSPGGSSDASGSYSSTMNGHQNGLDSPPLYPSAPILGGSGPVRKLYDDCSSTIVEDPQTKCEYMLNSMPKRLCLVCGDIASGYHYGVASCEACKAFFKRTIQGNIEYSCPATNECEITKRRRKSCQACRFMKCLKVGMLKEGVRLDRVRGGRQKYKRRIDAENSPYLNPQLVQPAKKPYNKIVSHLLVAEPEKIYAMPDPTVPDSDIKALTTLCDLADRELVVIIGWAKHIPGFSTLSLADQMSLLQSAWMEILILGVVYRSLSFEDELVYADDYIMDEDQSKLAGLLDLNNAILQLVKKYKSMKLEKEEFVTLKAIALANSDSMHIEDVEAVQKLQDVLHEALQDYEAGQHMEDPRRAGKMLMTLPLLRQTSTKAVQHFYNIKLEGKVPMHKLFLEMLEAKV
UniProt P43354, whole entry, looked up: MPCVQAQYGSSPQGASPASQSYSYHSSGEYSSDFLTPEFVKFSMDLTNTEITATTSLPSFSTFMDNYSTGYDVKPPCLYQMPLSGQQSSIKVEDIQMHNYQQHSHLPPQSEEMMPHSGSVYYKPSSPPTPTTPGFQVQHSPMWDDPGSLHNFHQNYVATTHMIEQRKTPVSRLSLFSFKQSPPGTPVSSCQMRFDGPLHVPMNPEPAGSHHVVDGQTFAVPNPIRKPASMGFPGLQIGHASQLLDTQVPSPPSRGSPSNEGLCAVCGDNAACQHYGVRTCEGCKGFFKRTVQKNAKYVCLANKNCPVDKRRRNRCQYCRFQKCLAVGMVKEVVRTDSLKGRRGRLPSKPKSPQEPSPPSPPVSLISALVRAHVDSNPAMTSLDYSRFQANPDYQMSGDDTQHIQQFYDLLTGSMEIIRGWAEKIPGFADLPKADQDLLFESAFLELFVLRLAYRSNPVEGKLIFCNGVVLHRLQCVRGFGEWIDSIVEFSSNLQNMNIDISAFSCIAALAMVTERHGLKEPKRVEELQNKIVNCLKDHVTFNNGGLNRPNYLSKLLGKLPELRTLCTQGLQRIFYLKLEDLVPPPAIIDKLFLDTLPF
UniProt P10276, whole entry, looked up: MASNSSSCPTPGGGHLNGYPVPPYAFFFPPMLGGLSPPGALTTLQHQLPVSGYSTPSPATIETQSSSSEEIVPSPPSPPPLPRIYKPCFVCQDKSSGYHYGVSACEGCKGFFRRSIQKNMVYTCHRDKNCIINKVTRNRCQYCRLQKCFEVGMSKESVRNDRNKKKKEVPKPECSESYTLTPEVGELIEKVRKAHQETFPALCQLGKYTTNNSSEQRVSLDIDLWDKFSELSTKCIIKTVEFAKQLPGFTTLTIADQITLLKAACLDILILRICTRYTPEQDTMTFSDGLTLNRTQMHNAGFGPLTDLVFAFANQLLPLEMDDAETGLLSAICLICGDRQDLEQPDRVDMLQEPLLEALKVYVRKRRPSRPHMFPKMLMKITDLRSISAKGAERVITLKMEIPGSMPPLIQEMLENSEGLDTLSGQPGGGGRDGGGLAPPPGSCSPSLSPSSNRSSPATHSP
UniProt P28702: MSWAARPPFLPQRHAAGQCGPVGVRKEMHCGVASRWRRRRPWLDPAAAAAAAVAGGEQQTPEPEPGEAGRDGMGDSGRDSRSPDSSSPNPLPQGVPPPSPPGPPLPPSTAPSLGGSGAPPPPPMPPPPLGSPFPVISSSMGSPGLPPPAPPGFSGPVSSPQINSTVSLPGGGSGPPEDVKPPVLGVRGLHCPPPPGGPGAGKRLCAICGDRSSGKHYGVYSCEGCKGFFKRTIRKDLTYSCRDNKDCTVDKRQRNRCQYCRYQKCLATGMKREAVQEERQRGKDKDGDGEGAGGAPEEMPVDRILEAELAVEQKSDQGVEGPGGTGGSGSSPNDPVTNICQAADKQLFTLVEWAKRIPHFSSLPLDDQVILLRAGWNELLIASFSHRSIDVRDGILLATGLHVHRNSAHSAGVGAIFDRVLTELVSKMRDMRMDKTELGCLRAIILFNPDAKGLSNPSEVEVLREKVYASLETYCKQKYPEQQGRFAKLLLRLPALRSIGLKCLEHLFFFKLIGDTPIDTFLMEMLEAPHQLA
UniProt Q01717: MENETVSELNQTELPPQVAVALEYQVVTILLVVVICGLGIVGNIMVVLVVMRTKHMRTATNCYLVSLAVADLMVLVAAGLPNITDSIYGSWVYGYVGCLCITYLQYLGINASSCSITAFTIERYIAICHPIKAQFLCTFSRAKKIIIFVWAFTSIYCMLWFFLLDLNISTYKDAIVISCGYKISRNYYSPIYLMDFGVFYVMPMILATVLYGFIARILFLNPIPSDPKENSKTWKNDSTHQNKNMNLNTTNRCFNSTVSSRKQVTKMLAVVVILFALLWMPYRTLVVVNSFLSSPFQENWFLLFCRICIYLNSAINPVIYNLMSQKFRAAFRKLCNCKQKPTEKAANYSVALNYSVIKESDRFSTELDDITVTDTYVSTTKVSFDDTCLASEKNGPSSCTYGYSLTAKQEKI
UniProt Q96RI1: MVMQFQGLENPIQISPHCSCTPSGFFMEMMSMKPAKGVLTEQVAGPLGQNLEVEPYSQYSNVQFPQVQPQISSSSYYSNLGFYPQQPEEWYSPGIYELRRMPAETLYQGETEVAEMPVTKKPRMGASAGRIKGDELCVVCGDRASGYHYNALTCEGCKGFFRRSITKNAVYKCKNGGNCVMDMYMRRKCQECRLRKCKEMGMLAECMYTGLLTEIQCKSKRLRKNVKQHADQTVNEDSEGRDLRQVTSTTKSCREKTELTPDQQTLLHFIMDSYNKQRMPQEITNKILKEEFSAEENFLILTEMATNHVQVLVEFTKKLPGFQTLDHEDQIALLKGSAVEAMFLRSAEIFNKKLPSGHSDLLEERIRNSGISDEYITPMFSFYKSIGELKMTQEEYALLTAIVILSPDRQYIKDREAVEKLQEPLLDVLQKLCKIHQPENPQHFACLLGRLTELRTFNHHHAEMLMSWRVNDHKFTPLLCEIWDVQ
UniProt P19793: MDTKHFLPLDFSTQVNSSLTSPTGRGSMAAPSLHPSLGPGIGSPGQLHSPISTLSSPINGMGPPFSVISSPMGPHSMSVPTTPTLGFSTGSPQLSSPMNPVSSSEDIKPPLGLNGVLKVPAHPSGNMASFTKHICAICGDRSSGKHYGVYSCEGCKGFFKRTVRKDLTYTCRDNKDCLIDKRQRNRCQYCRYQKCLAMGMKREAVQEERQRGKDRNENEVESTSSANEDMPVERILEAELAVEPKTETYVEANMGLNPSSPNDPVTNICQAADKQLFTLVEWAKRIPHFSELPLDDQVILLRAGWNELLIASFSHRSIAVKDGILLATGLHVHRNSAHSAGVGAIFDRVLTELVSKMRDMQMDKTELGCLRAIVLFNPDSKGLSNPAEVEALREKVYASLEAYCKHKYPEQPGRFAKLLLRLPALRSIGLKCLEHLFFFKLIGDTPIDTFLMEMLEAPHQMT
UniProt P20813: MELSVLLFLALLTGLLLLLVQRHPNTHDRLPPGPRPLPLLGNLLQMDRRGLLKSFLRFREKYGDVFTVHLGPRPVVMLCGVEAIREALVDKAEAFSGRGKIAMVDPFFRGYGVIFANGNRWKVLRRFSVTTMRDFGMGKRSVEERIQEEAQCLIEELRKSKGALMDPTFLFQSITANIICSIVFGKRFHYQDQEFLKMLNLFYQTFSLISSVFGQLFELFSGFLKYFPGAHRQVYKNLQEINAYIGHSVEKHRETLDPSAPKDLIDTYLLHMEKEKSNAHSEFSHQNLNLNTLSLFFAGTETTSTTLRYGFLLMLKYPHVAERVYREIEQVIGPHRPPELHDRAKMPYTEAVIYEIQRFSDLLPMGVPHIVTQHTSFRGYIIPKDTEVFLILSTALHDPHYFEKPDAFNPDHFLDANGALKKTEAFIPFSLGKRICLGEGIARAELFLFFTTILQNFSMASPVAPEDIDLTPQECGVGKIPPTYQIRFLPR
UniProt P33261, whole entry, looked up: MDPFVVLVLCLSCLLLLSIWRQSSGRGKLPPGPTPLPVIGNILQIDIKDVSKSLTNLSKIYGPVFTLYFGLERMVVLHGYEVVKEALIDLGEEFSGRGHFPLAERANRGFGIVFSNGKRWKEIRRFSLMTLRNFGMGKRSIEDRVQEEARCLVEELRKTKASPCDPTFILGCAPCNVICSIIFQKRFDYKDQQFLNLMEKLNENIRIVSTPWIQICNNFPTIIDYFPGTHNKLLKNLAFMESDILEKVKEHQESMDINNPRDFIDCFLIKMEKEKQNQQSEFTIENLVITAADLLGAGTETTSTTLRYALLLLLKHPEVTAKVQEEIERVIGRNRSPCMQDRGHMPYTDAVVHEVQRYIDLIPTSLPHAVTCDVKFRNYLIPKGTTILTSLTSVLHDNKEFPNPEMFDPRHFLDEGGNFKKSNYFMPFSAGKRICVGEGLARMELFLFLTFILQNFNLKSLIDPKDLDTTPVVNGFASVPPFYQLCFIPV
UniProt P08684, whole entry, looked up: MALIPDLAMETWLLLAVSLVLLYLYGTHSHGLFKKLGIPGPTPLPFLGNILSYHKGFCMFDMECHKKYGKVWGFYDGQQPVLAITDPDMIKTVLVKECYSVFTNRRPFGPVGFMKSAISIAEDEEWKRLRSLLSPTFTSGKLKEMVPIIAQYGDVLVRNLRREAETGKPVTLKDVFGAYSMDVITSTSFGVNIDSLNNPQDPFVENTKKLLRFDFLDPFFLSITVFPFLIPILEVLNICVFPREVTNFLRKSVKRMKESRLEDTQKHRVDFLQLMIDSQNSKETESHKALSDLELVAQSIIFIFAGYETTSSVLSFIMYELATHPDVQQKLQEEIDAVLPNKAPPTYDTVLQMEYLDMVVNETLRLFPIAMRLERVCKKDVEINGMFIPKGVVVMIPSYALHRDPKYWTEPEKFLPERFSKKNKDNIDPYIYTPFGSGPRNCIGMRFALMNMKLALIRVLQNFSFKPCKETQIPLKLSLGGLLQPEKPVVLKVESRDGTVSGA

Key:
[1] = biological target: Estrogen-related receptor gamma (Homo sapiens) (UniProt P62508); assay: ATG_ERRg_TRANS: Attagene TRANS-FACTORIAL HepG2 Assay for human Estrogen-Related Receptor gamma (ERRg) (AID 2282977); settings: HepG2 Attagene TRANS reporter, ERRg transactivation;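 further: hits increase reporter signal over DMSO so potencies reflect activators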
In short: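 Readout: fluorescent reporter-mRNA fragments resolved by capillary electrophoresis after RT-PCR and HpaI cut. Cells: transiently transfected HepG2 carrying GAL4-UAS reporters driven by exogenous NR-Gal4 chimeras, dosed 24 h. Activity fitted upward relative to DMSO baseline.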

[2] = biological target: Nuclear receptor subfamily 4 group A member 2 (Homo sapiens) (UniProt P43354); assay: ATG_NURR1_TRANS: Attagene TRANS-FACTORIAL HepG2 Assay for human Nuclear Receptor Related Protein 1 (NURR1) (AID 2282985); settings: HepG2 Attagene TRANS reporter, mRNA readout
In short: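 Read-out: reporter mRNA induction by RT-PCR plus capillary electrophoresis with fluorescence detection, after 24 h dosing of transfected HepG2 cells. Exogenous NR-Gal4 chimera activity drives GAL4-UAS reporter; activity fitted upward versus DMSO.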

[3] = biological target: Retinoic acid receptor alpha (Homo sapiens) (UniProt P10276); assay: ATG_RARa_TRANS: Attagene TRANS-FACTORIAL HepG2 Assay for human Retinoic Acid Receptor alpha (RARa) (AID 2283005);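 further: potency for increased reporter signal meaning RARa activation over DMSO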
In short: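 HepG2 transiently transfected with multiplex GAL4-UAS reporter units including a human RARa–GAL4 chimera; 24 h compound exposure. Reporter mRNA quantified by RT-PCR, 6-FAM labeling and capillary electrophoresis; gain of signal versus DMSO.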

[4] = biological target: human Retinoid X Receptor beta (RXRb), RXRB (gene 6257) (UniProt P28702); assay: ATG_RXRb_TRANS: Attagene TRANS-FACTORIAL HepG2 Assay for human Retinoid X Receptor beta (RXRb) (AID 2283013)
In short: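 Read-out: reporter mRNA induction via RT-PCR plus capillary electrophoresis fluorescence, analysed as signal increase relative to DMSO. Cells were human HepG2, transiently transfected with GAL4-UAS reporter constructs and chimeric receptor-Gal4 fusions, dosed for 24 h.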

[5] = biological target: rat Thyrotropin Releasing Hormone Receptor (TRH), Trhr (gene 25570) (UniProt Q01717); assay: NVS_GPCR_rTRH: NovaScreen (NVS) G Protein-Coupled Receptor Assay for rat Thyrotropin Releasing Hormone Receptor (TRH) (AID 2283329);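 further: hit means lower bound tracer signal versus DMSO baseline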
In short: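 Rat forebrain membrane prep, radioligand displacement, filter scintillation readout at 4 h. Single conc 25 uM, duplicate; actives retested as concentration series. DMSO = negative control/baseline.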

[6] = biological target: Bile acid receptor (Homo sapiens) (UniProt Q96RI1); assay: OT_FXR_FXRSRC1_0480: Odyssey Thera (OT) 8-hour HEK293T Protein-Complementation Assay for Farnesoid X receptor/SRC-1 Co-activator (AID 2283383)
In short: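 Fluorescence intensity read-out, 8 h post-dose, HEK293T protein-fragment complementation; FXR bait and SRC-1 prey each linked to reporter fragments. Activity scored as signal increase over DMSO negative control.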

[7] = biological target: Bile acid receptor (Homo sapiens) (UniProt Q96RI1); assay: OT_FXR_FXRSRC1_1440: Odyssey Thera (OT) 24-hour HEK293T Protein-Complementation Assay for Farnesoid X receptor/SRC-1 Co-activator (AID 2283384)
In short: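 Fluorescence readout, 24 h post-dose, HEK293T; FXR and SRC-1 fused to complementary reporter fragments, association reconstitutes signal. Positive-direction fit vs DMSO baseline.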

[8] = biological target: Retinoic acid receptor RXR-alpha (Homo sapiens) (UniProt P19793); assay: OT_NURR1_NURR1RXRa_0480: Odyssey Thera (OT) 8-hour HEK293T Protein Complementation Assay for Nurr1/retinoid X receptor (RXR) (AID 2283385)
In short: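 Read-out: fluorescence from protein-fragment complementation between Nurr1 and RXRα in human HEK293T cells, 8 h after dosing. DMSO served as negative control; increased signal counted as activity.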

[9] = biological target: Retinoic acid receptor RXR-alpha (Homo sapiens) (UniProt P19793); assay: OT_NURR1_NURR1RXRa_1440: Odyssey Thera (OT) 24-hour HEK293T Protein Complementation Assay for Nurr1/retinoid X receptor (RXR) (AID 2283386)
In short: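 Fluorescence PCA read-out; HEK293T; 24 h post-dose; bait/prey fused to reporter fragments; gain-of-signal fit vs DMSO negative control.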

[10] = Tanguay_ZF_120hpf_PIG_legacy: (Legacy) Oregon State University Tanguay Lab 120 Hour Post-fertilization zebrafish Assay for Pigmentation Malformation (AID 2283650);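 further: dechorionated Tropical 5D zebrafish embryos exposed singly from 6 to 120 hpf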
In short: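 Brightfield scoring of pigmentation malformation at 120 hpf, recorded as binary present/absent per larva. Exposure: dechorionated 5D wild-type embryos, one per well, static from 6 hpf at 28C, final DMSO 0.64% (vol/vol). Dead embryos not scored.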

[11] = Tanguay_ZF_120hpf_CIRC_legacy: (Legacy) Oregon State University Tanguay Lab 120 Hour Post-fertilization zebrafish Assay for Circulatory Malformation (AID 2283651)
In short: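 Static exposure, 6–120 hpf, 28C, sealed and dark; one dechorionated 5D embryo/well; DMSO 0.64% v/v final. Binary circulation endpoint by brightfield; dead embryos not scored.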

[12] = Tanguay_ZF_120hpf_SWIM_legacy: (Legacy) Oregon State University Tanguay Lab 120 Hour Post-fertilization zebrafish Assay for Swim Bladder Malformation (AID 2283654);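 further: swim bladder malformation in each larva scored yes or no under brightfield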
In short: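 Tropical 5D embryos dechorionated at 4 hpf; 1 embryo/well from 6 hpf; static, sealed, dark exposure at 28C until 120 hpf; final DMSO 0.64%; 5uM trimethyltin chloride positive control; swim bladder defect recorded yes/no; dead embryos not scored.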

[13] = read-out: xenobiotic metabolism (CYP1A1), CYP1A1 (gene 1543); assay: CLD_CYP1A1_6hr: CellzDirect (CLD) Gene Expression Assay for xenobiotic metabolism (CYP1A1) at 6 hours (AID 2283661);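 further: potency for transcript induction above DMSO vehicle baseline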
In short: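 Read-out 6 h post-dose: qNPA chemiluminescent quantitation of transcript induction against 0.2% DMSO. Cells were cultured primary human hepatocytes from two separate donor preparations; phase-contrast morphology annotated apparent cytotoxicity.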

[14] = read-out: xenobiotic metabolism (CYP1A2), CYP1A2 (gene 1544); assay: CLD_CYP1A2_6hr: CellzDirect (CLD) Gene Expression Assay for xenobiotic metabolism (CYP1A2) at 6 hours (AID 2283663);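 further: potency is for induction meaning a rise in mRNA above DMSO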
In short: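 mRNA levels quantified by quantitative nuclease protection assay with chemiluminescence, 6 h after dosing human primary hepatocyte cultures (two donors) across several concentrations, vehicle 0.2% DMSO. Induction fitted upward versus DMSO; phase-contrast cytotoxicity annotated.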

[15] = read-out: alkyl and aryl transferase (GSTA2), GSTA2 (gene 2939); assay: CLD_GSTA2_6hr: CellzDirect (CLD) Gene Expression Assay for alkyl and aryl transferase (GSTA2) at 6 hours (AID 2283666)
In short: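 GSTA2 transcript induction at 6 h, quantified by nuclease protection (qNPA) with chemiluminescent detection, in human liver primary hepatocytes exposed to several compound concentrations with 0.2% DMSO as baseline; phase-contrast morphology annotated apparent cytotoxicity.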

[16] = CLD_ACTIN_24hr: CellzDirect (CLD) Gene Expression Assay for Baseline Control (Actin) at 24 hours (AID 2283670)
In short: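 This 24 h qNPA (S1 nuclease protection, chemiluminescence) actin transcript readout in cultured human liver primary cells serves as baseline control. Signal is fitted upward relative to 0.2% DMSO; chemicals tested at multiple concentrations across two donor preparations.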

[17] = read-out: glucuronosyltransferase (UGT1A1), UGT1A1 (gene 54658); assay: CLD_UGT1A1_6hr: CellzDirect (CLD) Gene Expression Assay for glucuronosyltransferase (UGT1A1) at 6 hours (AID 2283672)
In short: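 UGT1A1 mRNA induction, read by quantitative nuclease protection assay, 6 h after dosing primary human hepatocytes (two donors, 0.2% DMSO vehicle). Gain of signal fitted relative to vehicle.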

[18] = read-out: Cytochrome P450 2B6 (Homo sapiens) (UniProt P20813); assay: CLD_CYP2B6_6hr: CellzDirect (CLD) Gene Expression Assay for xenobiotic metabolism (CYP2B6) at 6 hours (AID 2283677);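 further: actives raise CYP2B6 transcript above DMSO baseline so AC50 marks an inducer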
In short: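 CYP2B6 transcript levels, read by chemiluminescent qNPA, were fitted for increase versus DMSO baseline; cultured human liver hepatocytes from two donor preparations were harvested 6 h after exposure to test chemicals at multiple concentrations.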

[19] = read-out: Cytochrome P450 2C19 (Homo sapiens) (UniProt P33261); assay: CLD_CYP2C19_24hr: CellzDirect (CLD) Gene Expression Assay for xenobiotic metabolism (CYP1A2) at 24 hours (AID 2283687)
In short: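 CYP2C19 mRNA was quantified by qNPA chemiluminescence after 24 h of daily dosing of cultured human primary hepatocytes from two donors; vehicle was 0.2% DMSO, and increases over DMSO baseline were fitted.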

[20] = read-out: HMG-CoA synthase (HMGCS2), HMGCS2 (gene 3158); assay: CLD_HMGCS2_24hr: CellzDirect (CLD) Gene Expression Assay for HMG-CoA synthase (HMGCS2) at 24 hours (AID 2283691)
In short: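 qNPA with S1 nuclease digestion and chemiluminescent detection gave HMGCS2 transcript levels, fitted upward against 0.2% DMSO vehicle. Cultured human hepatocytes (two donors) received fresh compound daily and were harvested at 24 h; phase-contrast morphology flagged cytotoxicity.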

[21] = read-out: alkyl and aryl transferase (GSTA2), GSTA2 (gene 2939); assay: CLD_GSTA2_24hr: CellzDirect (CLD) Gene Expression Assay for alkyl and aryl transferase (GSTA2) at 24 hours (AID 2283693)
In short: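 GSTA2 transcript levels were quantified by quantitative nuclease protection assay in primary human hepatocytes 24 h after daily dosing with fresh solutions at multiple concentrations; 0.2% DMSO vehicle as baseline, cytotoxicity flagged morphologically.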

[22] = read-out: glucuronosyltransferase (UGT1A1), UGT1A1 (gene 54658); assay: CLD_UGT1A1_24hr: CellzDirect (CLD) Gene Expression Assay for glucuronosyltransferase (UGT1A1) at 24 hours (AID 2283696)
In short: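 UGT1A1 transcript induction was measured by quantitative nuclease protection assay (chemiluminescence) in human hepatocyte cultures 24 h after daily fresh dosing, with 0.2% DMSO as vehicle and baseline.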

[23] = read-out: Cytochrome P450 3A4 (Homo sapiens) (UniProt P08684); assay: CLD_CYP3A4_48hr: CellzDirect (CLD) Gene Expression Assay for xenobiotic metabolism (CYP3A4) at 48 hours (AID 2283698)
In short: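 CYP3A4 induction read by qNPA chemiluminescence after 48 h, with fresh dosing solutions on consecutive days, in cultured human hepatocytes (two donors). Vehicle 0.2% DMSO as baseline; microscopy-based cytotoxicity annotated yes/no alongside data.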

[24] = read-out: xenobiotic metabolism (CYP1A1), CYP1A1 (gene 1543); assay: CLD_CYP1A1_48hr: CellzDirect (CLD) Gene Expression Assay for xenobiotic metabolism (CYP1A1) at 48 hours (AID 2283705)
In short: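 CYP1A1 transcript measured by quantitative nuclease protection (chemiluminescent) 48 h after two daily treatments of human hepatocyte cultures, versus 0.2% DMSO. Morphology-based cytotoxicity flags accompany data; two donor preparations used.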

[25] = read-out: organic anion transporter (SLCO1B1), SLCO1B1 (gene 10599); assay: CLD_SLCO1B1_48hr: CellzDirect (CLD) Gene Expression Assay for organic anion transporter (SLCO1B1) at 48 hours (AID 2283707)
In short: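 SLCO1B1 transcript quantified by qNPA with chemiluminescent readout after 48 h of once-daily chemical exposure. Cultured human primary hepatocytes came from two donors, with 0.2% DMSO vehicle; positive-direction fitting against DMSO, cytotoxicity flagged by morphology.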

Measured: AC50

O=C1C2CC=CCC2C(=O)N1SC(Cl)(Cl)C(Cl)Cl (stereo not given)
inconclusive: [1] 0.127 µM | [2] 0.135 µM | [3] 0.53 µM | [4] 0.00737 µM | [5] 1.3 µM | [6] 85.9 µM | [7] 90.9 µM | [8] 15.2 µM | [9] 50 µM | [10] 4.52 µM | [11] 0.675 µM | [12] 10.4 µM | [13] 3.97 µM | [14] 38.1 µM | [15] 0.00205 µM | [16] 20 µM | [17] 20 µM | [18] 0.00287 µM | [19] 20 µM | [20] 20 µM | [21] 20 µM | [22] 20 µM | [23] 0.00476 µM | [24] 0.0101 µM | [25] 2 µM
